These results are taken from paper PMC5846726, “Characterization of the Mel1c melatoninergic receptor in platypus (Ornithorhynchus anatinus)” (PLoS ONE, 2018).

In the assay the target is T1, hMT2 (Homo sapiens, UniProt P49286).
T1 sequence (P49286 1-362): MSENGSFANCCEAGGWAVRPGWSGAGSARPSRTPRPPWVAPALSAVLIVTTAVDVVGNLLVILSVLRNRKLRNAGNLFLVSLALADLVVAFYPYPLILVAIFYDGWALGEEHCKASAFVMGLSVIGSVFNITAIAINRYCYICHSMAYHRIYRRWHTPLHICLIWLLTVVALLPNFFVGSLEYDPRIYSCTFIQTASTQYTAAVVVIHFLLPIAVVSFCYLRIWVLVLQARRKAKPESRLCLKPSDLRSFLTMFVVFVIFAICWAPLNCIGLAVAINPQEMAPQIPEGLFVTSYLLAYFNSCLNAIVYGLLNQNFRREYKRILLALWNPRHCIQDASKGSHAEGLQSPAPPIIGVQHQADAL
The assay can be described thus: 2-[125I]-iodomelatonin competition binding, human MT2. On the procedure: This approach has been described very often by our laboratory and others. […] The results were expressed as Ki, taking into account the concentration of radioligand used in each experiment. […] The reaction was stopped by rapid filtration through GF/B Unifilters, followed by three successive washes with ice-cold buffer. Data were analyzed by using the program PRISM (GraphPad Software Inc., San Diego, CA). For saturation assays, the density of binding sites (Bmax) and the dissociation constant of the radioligand (KD) were calculated according to the Scatchard method. […] A similar protocol was used when the binding was performed on whole cells, as described by Legros et al.. As per Plos One policy, all the raw data–listings from radioactivity counter are attached as raw files (Supplementary Tables A to M in S1 Data).

In turn, “(S)-N-(2-(1,6,7,8-tetrahydro-2H-indeno-(5,4)furan-8-yl)ethyl)propionamide [Ramelteon ®]” yielded a hMT2 of 10.3.
